For data set [1] the following is noted: at specified conditions (not detailed); DVS profile FIG. 17. The procedure:
Samples were not dried prior to analysis. Equilibrium criteria used for analysis were less than 0.0100% weight change in 5 minutes, with a maximum equilibration time of 3 hours if the weight criterion was not met. Data were not corrected for the initial moisture content of the samples. NaCl and PVP were used as calibration standards.

The conditions of data set [2]: ambient temperature, FIG. 18B, product of Example 8 versus epalrestat free acid.

For the substance “betaine hydrogen diepalrestat [betaine hydrogen diacid cocrystal]”, in data set [1], the “stability to decomposition from uptake of moisture” value is “stable to decomposition from uptake of moisture”. In addition, the “dissolution of epalrestat in water compared with the free acid” value in data set [2] is recorded as “dissolves more quickly”.

For the origin of these results see patent publication US9447056B2, “Solid forms of epalrestat” (Bionevia Pharmaceuticals, Inc., priority 2008, dated 2016).
